Laboratory results from US20240247031A1, “COMPOSITION FOR TREATING CANCER CONTAINING TELOMERASE-TARGETING GNRH ANTAGONIST-DERIVED PEPTIDE HS1002” (Research & Business Foundation Sungkyunkwan University, priority 2023, published 2024).

Legend:
MC38 tumor = test: MC38 syngeneic mouse tumor model (FIG. 19); assay type: in vivo; settings: 1 mg/kg s.c. every day
Description: All mice were purchased from Central Lab Animal Inc. ([…]). They were raised in a 12 h environmental light/dark cycle with controlled temperature (22±2° C.) conditions. The experimental protocol was approved by the Sungkyunkwan University Institutional Animal Care and Use Committee (SKKUIACUC2021-06-27-1, SKKUIACUC2023-01-07-1). For the establishment of tumors, LNCaP (1×10^7), MC38 (2×10^5), and 4T1 (1×10^6) suspended in serum-free media containing 50% Matrigel was subcutaneously administered in the right flank of mice, respectively. The tumor volumes (V) were calculated using a caliper and the standard equation: V (mm^3)=0.52 (ab^2) (a=length, b=width). Once the tumor reached 100-200 mm^3, the mice were randomly divided into different groups and subcutaneously injected with a vehicle or each peptide every day.
The sequences of the TERT peptide are highly conserved in human and mouse, indicating its potential translatability to mouse cancer. […] Hot tumors are generally more responsive to immunotherapy. In contrast, ‘Cold’ tumors such as the 4T1 tumor model lack infiltrating T cells and often have a low tumor mutational burden. Without a pre-existing adaptive immune response, cold tumors are insensitive to immunotherapy. […]

MCF-7 = assay type: cell-based; settings: human, 48 h
Description: (§1) To evaluate anticancer activities of the produced peptides on various types of cancer cells, MTT analysis was performed. Human prostate cancer cell lines (LNCaP, PC3, and DU145), human breast cancer cell lines (MDA-MB-231 and MCF-7), lung cancer cell line (A549), and ovarian cancer cell line (SKOV3) were cultured in RPMI media supplemented with 1% penicillin/streptomycin and 1% fetal bovine serum (all from Life Technologies, Grand Island, NY). The cells were seeded in 96-well plates containing 100 μL of growth media for 24 h. The media were removed, and then 100 μL of the peptide (solvent DPBS) at each concentration was added to each well and incubated at 37° C. for 48 h. After incubation for 48 h, 100 μL of MTT reagent was added to each well. The cells were incubated at 37° C. for 4 h, and then the supernatant was removed. Formazan crystals were dissolved in 100 μL of DMSO with gentle stirring at 37° C. for 10 min. The absorbance per well was measured at 540 nm using a VERSA max microplate reader (Molecular Devices Corp.).

LNCaP = assay type: cell-based; settings: human, 48 h
Description: as §1

DU145 = test: MTT cytotoxicity on various cancer cells (Table 1); assay type: cell-based; settings: human, 48 h
Description: as §1

SKOV3 = test: MTT cytotoxicity on various cancer cells (Table 1); assay type: cell-based; settings: human, 48 h
Description: as §1

A549 = test: MTT cytotoxicity on various cancer cells (Table 1); assay type: cell-based; settings: human, 48 h
Description: as §1

PC3 = test: MTT cytotoxicity on various cancer cells (Table 1); assay type: cell-based; settings: human, 48 h
Description: as §1

Which tumor volume (MC38 tumor) does the source give for `CC[C@H](C)[C@H](NC(=O)[C@H](Cc1ccccc1)NC(=O)[C@H](CCCNC(=N)N)NC(=O)[C@H](CC(C)C)NC(=O)[C@H](CCCNC(=N)N)NC(=O)[C@H](CO)NC(=O)[C@@H](NC(=O)[C@H](CC(C)C)NC(=O)[C@H](CC(C)C)NC(=O)[C@H](C)NC(=O)[C@@H]1CCCN1C(=O)[C@H](CCCNC(=N)N)NC(=O)[C@H](C)NC(=O)[C@@H](N)CCC(=O)O)[C@@H](C)O)C(=O)N1CCC[C@H]1C(=O)N[C@@H](CCCCN)C(=O)O` [GV1001, reference compound] here?
Its tumor volume is “diminished”.

What about the tumor weight (MC38 tumor) of the same compound?
The tumor weight was “diminished”.

What about the “Cytotoxicity (IC50) MCF-7” value (MCF-7) of the same compound?
The value was 55.56 ± 2.18 µg/mL.

And the “Cytotoxicity (IC50) LNCaP” value (LNCaP)?
Its value is 7.34 ± 0.31 µg/mL.

What about the “Cytotoxicity (IC50) DU145” value (DU145) of the same compound?
The value was 7.59 ± 0.46 µg/mL.

What about the “Cytotoxicity (IC50) SKOV3” value (SKOV3) of the same compound?
The value was 5.16 ± 0.62 µg/mL.

What about the “Cytotoxicity (IC50) A549” value (A549) of the same compound?
The value was 3.16 ± 0.30 µg/mL.

And the “Cytotoxicity (IC50) PC3” value (PC3)?
The value was 9.05 ± 0.62 µg/mL.
